The series can be described thus: Plasma pharmacokinetics of dasatinib in study patients. Particulars: human, oral, 100 mg.

The molecule `Cc1nc(Nc2ncc(C(=O)Nc3c(C)cccc3Cl)s2)cc(N2CCN(CCO)CC2)n1` [Dasatinib] gave a half-life of 2.5 h.

The values above are taken from PMC6201295 (Leukemia & lymphoma, 2018).
